# In PubChem BioAssay AID1246 (Columbia University Molecular Screening Center, 2008):
# The list shows a part of the results, in another mix than the full data. The source made the active and inactive calls.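 Rule for the calls: active = inhibition above the batch mean plus 3 SD, and confirmed as a hit on visual image review (cut at about 43% in these data); inconclusive = passes the inhibition cutoff but fails visual image review; inactive = the rest.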
# Assay: E-selectin induction blockers in HUVEC – imaging, immunofluorescence, high content, primary screen (AID 1246);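 note: 0% = TNF-stimulated DMSO wells and 100% = unstimulated control wells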
# Details: HUVEC TNFa-induced E-selectin immunofluorescence, at 2 µM, active compounds read high
row,SMILES,inhibition
1,CCOC(=O)c1ccc(NP(C)(=O)Oc2ccc(Cl)cc2)cc1 (stereo not given),inactive: 10.1%
2,CP(=O)(OC12CC3CC(CC(C3)C1)C2)OC12CC3CC(CC(C3)C1)C2,inactive: 15.4%
3,CN(C)C(=O)c1c([N+](=O)[O-])cc([N+](=O)[O-])cc1[N+](=O)[O-],inactive: 20.1%
4,CC(C)(C)c1ccc(OP(C)(=O)O)cc1,inactive: -14.5%
5,CP(=O)(Nc1ccc(Cl)cc1)Oc1ccc(F)cc1 (stereo not given),inactive: 3.79%
6,CP(=O)(Oc1ccccc1)N1CCOC1=O (stereo not given),inactive: -25.9%
7,COc1ccc(OP(C)(=O)Nc2ccc(Br)cc2)cc1 (stereo not given),inactive: -51.5%
8,CP(=O)(Nc1ccccn1)Oc1ccccc1 (stereo not given),inactive: 9.93%
9,CCc1ccc(OP(C)(=O)O)cc1,inactive: 4.64%
10,Cc1c(NP(C)(=O)Oc2ccc(C(C)C)cc2)c(=O)n(-c2ccccc2)n1C (stereo not given),inactive: 14.7%
11,COc1ccc(OP(C)(=O)Nc2ccccn2)cc1 (stereo not given),inactive: 2.62%
12,CN(C)CCOC(=O)C(O)(c1ccccc1)C1CCCC1 (stereo not given),inactive: 10.6%
13,Cc1nc2ccc3ccccc3c2o1.O=[N+]([O-])c1cc([N+](=O)[O-])c(O)c([N+](=O)[O-])c1,inactive: -12.7%
14,CP(=O)(Nc1ccccc1)Oc1ccc(F)cc1 (stereo not given),inactive: 3.28%
15,CCN(CC)CCCOC(=O)C(O)(c1ccccc1)C1CCCCC1 (stereo not given),inactive: 7.35%
16,CCOC(=O)c1ccc(NP(C)(=O)Oc2ccc(F)cc2)cc1 (stereo not given),inactive: -4.03%
17,COc1ccc(OP(C)(=O)Nc2ccc(SC(F)(F)F)cc2)cc1 (stereo not given),inactive: -18.9%
18,O=C(OCCN1CCN(CCOCc2ccccc2)CC1)C(O)(c1ccccc1)c1ccccc1,inactive: 22.2%
19,Cc1ccccc1NP(C)(=O)Nc1ccccc1C,inactive: -47.5%
20,CP(=O)(Nc1ccc2c(c1)OCCO2)Oc1ccccc1 (stereo not given),inactive: 6.33%

row,SMILES,inhibition
1,CCOP(C)(=S)SCC(=O)NC(C)(CC)C(=O)O (stereo not given),inactive: 19%
2,CN(C)CCOC(=O)C(O)(c1ccccc1)C1CCCCC1 (stereo not given),inactive: 8.87%
3,COc1ccc(OP(C)(=O)Nc2cccc(Br)c2)cc1 (stereo not given),inactive: -23.2%
4,CP(=O)(Nc1ccc(SC(F)(F)F)cc1)Oc1ccccc1 (stereo not given),inactive: -6.04%
5,COc1ccccc1OP(C)(=O)Nc1c(C)cccc1C (stereo not given),inactive: 7.48%
6,Cc1nc2ccc3ccccc3c2s1.O=[N+]([O-])c1cc([N+](=O)[O-])c(O)c([N+](=O)[O-])c1,inactive: 39.8%
7,Cc1ccc(C)c(NP(C)(=O)Oc2ccccc2)c1 (stereo not given),inactive: -19.4%
8,Cc1cc(C)cc(OP(C)(=O)Nc2ccccn2)c1 (stereo not given),inactive: -3.09%
9,CCOC(=O)c1ccc(NP(C)(=O)Oc2cc(C)cc(C)c2)cc1 (stereo not given),inactive: -6.02%
10,Cc1cc(C)cc(OP(C)(=O)Nc2ccc(C)cc2C)c1 (stereo not given),inactive: 6.93%
11,CC1=NCCc2c1[nH]c1ccccc21.O=[N+]([O-])c1cc([N+](=O)[O-])c(O)c([N+](=O)[O-])c1,inactive: 27.7%
12,COc1ccc(OP(C)(=O)Nc2cccc(F)c2)cc1 (stereo not given),inactive: -7.84%
13,COc1ccccc1OP(C)(=O)Nc1ccc(C)cc1 (stereo not given),inactive: -43.8%
14,Cc1ccc(NP(C)(=O)Oc2ccccc2)c(C)c1 (stereo not given),inactive: 49.7%
15,CCOC(=O)c1ccc(NP(C)(=O)Oc2ccccc2)cc1 (stereo not given),inactive: -0.8%
16,CP(=O)(Nc1ccccn1)Oc1ccc(Cl)cc1 (stereo not given),inactive: 8.72%
17,CCOP(C)(=S)SCC(=O)NC(C)C(=O)O (stereo not given),inactive: -0.02%
18,Cc1cccc(C)c1OP(C)(=O)Nc1ccc(SC(F)(F)F)cc1 (stereo not given),inactive: -5.55%
19,CP(=O)(Nc1ccccc1Br)Oc1ccccc1 (stereo not given),inactive: -9.52%
20,CP(=S)(Nn1cnnc1)Oc1ccccc1 (stereo not given),inactive: -9.25%
